ARFGAP1 inh – inhibitors of rat ARFGAP1 GAP activity, primary screen, biochemical, fluorescence polarization, GDP tracer; inhibition, % at 16.5 µM; Arfgap1-stimulated ARF1 GTP hydrolysis, GDP FP detection; 0.26% of 360,000 active; ADP-ribosylation factor GTPase-activating protein 1 (Rattus norvegicus), Q62848;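 active = inhibition above a per-plate limit, mean inhibition of low control wells plus 3 SD, cut at about 25% in these data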
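Material – truncated rat Arfgap1 GAP domain · Buffer or medium – HEPES-based buffer, pH 7.5 · Reagent – human ARF1(Δ1-17)-GTP substrate · Dosing – 16.5 µM single point, 1.26% DMSO · Schedule – GTP hydrolysis reaction 2 h at 25 °C · Technique – GDP detection by fluorescence polarization · Benchmarks – No-Arfgap1 wells (100%) versus DMSO full-reaction wells (0%) · Repeats – single replicate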
MC4R barr agon – MC4R agonists recruiting beta-arrestin, primary screen, cell-based, luminescence, agonist arm of biased-ligand search | U2OS MC4R beta-arrestin complementation; percent of melanotan II response, DMSO zero | AID 540308, 2011 | activation, % at 8.9 µM | 0.98% of 360,000 active | Melanocortin receptor 4 (Homo sapiens), P32245;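 active = activation above a per-plate cutoff, the mean activation of sample wells on that plate plus 3 SD, cut at about 8% in these data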
Yeast UUG start – modulators of start codon recognition fidelity in yeast; S. cerevisiae UUG-firefly luciferase reporter, luminescence/redox ratio; AID 602363; 350,000 tested, 0.13% active; activity score, % at 18.7 µM;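 active = replicate mean at a twofold rise or more, about +100% in these data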;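 also: firefly luciferase made from a UUG start codon reports start codon fidelity; reporter light over untreated wells divided by growth signal over untreated wells; some hits fall short of that in this replicate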
NRP1-CendR mod – modulators of CendR peptide binding to NRP-1, primary screen, biochemical, fluorescence polarization, uHTS; Neuropilin-1 (Homo sapiens), O14786; inhibition, % at 25 µM; FAM-RPARPAR peptide binding to NRP-1; 0.85% of 360,000 active;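 active = inhibition or corrected inhibition above about 18%, plus a signal ratio from 0.5 to 1.5, limit read from the data, passing the limit was not always enough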
MC4R antagonist – MC4R antagonists of cAMP signaling, primary screen, cell-based, TR-FRET, antagonist arm of biased-ligand search | MC4R-expressing cells, MTII-stimulated cAMP, LANCE TR-FRET | 0.48% of 360,000 active | Melanocortin receptor 4 (Homo sapiens), P32245 | inhibition, % at 6.5 µM;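 active = inhibition above its plate's cutoff, the mean of tested wells on that plate plus 3 SD, cut at about 29% in these data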
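Material – human MC4R-expressing U2OS cells · Repeats – no replicates · Detection – TR-FRET with Eu-cAMP and labeled anti-cAMP, 671 nm · Times – compound 30 min, challenge 1 h, detection 1 h · Compound – single nominal compound dose of 6.5 µM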
ASAP1 inh – inhibitors of human ASAP1 ArfGAP activity, primary screen, biochemical, fluorescence polarization; 0.19% of 360,000 active; AID 624377, 2012; ASAP1-stimulated ARF1 GTP hydrolysis, GDP FP detection; Arf-GAP with SH3 domain, ANK repeat and PH domain-containing protein 1 (Homo sapiens), …; inhibition, % at 16.5 µM; in the data active = inhibition above about 25%
MC4R barr conf – MC4R beta-arrestin agonists, retest, confirmation, cell-based, luminescence, U2OS; shares compounds with MC4R barr agon; U2OS MC4R beta-arrestin recruitment; scaled DMSO 0%, Melanotan II 100%; activation, % at 8.9 µM; 31% of 2,400 active; AID 602192, 2012;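 active = mean activation across replicates above the hit cutoff set in the earlier primary screen, cut at about 8% in these data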
MOR DOR agonist – agonists of MOR-DOR heterodimerization, counter-screen for MC4R biased agonist project, cell-based, luminescence; shares compounds with MC4R barr agon; U2OS PathHunter beta-arrestin, beta-gal luminescence; percent of deltorphin B response, DMSO zero; activation, % at 9.2 µM; 5.8% of 2,400 active;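 active = mean activation across replicates exceeds the hit threshold derived in the earlier primary screen, cut at about 18% in these data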
A number is an active result; - = inactive; . = not tested or not shown. Sampled rows, rich in hits. Any-hit rate of the full collection: about 2.3%.

Sequences of proteins named here, by UniProt entry; tags and fusion partners are left off.
ADP-ribosylation factor GTPase-activating protein 1 (Rattus norvegicus), Q62848, UniProt Q62848, whole entry, looked up: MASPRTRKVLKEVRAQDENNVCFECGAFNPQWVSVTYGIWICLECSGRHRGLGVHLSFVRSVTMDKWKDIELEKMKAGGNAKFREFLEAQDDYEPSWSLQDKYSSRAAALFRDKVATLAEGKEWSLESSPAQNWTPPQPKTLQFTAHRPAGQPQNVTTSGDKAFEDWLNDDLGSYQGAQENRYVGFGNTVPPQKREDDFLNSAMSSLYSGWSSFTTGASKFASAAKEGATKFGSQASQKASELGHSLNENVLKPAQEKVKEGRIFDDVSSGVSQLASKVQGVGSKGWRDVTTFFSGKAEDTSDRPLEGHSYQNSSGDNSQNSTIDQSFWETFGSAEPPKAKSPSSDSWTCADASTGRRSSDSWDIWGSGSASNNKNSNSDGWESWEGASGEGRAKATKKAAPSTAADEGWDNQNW
Melanocortin receptor 4 (Homo sapiens), P32245, UniProt P32245, whole entry, looked up: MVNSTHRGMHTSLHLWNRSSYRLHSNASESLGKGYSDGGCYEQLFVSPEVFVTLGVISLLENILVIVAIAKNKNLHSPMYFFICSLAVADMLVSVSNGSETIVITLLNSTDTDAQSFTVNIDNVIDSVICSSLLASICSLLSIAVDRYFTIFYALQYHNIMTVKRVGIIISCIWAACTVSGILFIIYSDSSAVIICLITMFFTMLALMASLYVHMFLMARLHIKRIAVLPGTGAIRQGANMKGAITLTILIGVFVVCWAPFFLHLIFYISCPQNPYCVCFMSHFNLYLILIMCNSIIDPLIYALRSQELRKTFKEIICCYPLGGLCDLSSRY
Neuropilin-1 (Homo sapiens), O14786, UniProt O14786, whole entry, looked up: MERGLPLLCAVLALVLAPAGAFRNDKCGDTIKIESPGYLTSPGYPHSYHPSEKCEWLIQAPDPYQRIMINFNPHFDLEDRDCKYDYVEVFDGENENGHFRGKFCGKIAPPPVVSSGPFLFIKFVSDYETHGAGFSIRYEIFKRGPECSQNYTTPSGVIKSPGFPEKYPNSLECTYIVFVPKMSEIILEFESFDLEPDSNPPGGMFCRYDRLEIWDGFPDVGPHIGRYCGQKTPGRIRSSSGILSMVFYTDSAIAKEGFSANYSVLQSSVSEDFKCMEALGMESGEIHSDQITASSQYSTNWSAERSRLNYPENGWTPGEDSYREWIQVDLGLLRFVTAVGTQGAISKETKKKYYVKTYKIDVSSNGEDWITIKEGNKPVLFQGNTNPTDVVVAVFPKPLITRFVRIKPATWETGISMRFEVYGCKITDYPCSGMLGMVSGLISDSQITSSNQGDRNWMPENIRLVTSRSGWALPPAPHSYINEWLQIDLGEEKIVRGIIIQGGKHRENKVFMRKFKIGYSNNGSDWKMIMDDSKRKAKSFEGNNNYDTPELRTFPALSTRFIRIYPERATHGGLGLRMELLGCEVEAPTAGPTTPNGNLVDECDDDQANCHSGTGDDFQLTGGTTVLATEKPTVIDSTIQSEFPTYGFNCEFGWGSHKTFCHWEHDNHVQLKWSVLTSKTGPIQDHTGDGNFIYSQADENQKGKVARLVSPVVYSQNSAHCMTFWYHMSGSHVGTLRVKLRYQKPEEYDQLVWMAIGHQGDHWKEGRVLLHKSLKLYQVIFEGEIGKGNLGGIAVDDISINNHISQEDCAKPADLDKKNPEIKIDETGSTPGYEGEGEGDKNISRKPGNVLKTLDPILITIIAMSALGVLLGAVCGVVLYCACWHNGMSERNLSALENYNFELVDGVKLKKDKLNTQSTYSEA

SMILES	ARFGAP1 inh	MC4R barr agon	Yeast UUG start	NRP1-CendR mod	MC4R antagonist	ASAP1 inh	MC4R barr conf	MOR DOR agonist
COc1cc(/C=N/NC(=S)NC2CC3CC2C2C=CCC32)ccc1O (stereo unspecified)	-	9.9	.	-	-	-	-	-
O=C(c1ccc(COc2ccccc2Br)o1)N1N=C(C(F)F)CC1(O)C(F)F (stereo unspecified)	-	14.5	-	-	-	-	-	-
O=C(c1ccc(Cn2cc([N+](=O)[O-])cn2)o1)N1N=C(C(F)F)CC1(O)C(F)F (stereo unspecified)	.	-	-	-	-	.	.	.
CN(C)CCCNC(=O)C[C@H]1C=C[C@H](NC(=O)c2ccccc2F)[C@@H](CO)O1	.	.	-	.	.	.	.	.
Cc1cc(C)cc(NC(=O)Cc2ccc(-n3cccc3)cc2)c1	-	9.7	-	-	-	-	-	-
Cc1ccc(NC(=O)Cc2ccc(-n3cccc3)cc2)c(C)c1	-	-	-	-	-	-	.	.
CCC(=O)N1C[C@@H](C)[C@@H](OC)CN(C)C(=O)c2cc(NC(=O)C3CCOCC3)ccc2OC[C@H]1C	.	.	-	.	.	.	.	.
Cc1cc(NC(=O)CCSc2nc(-c3ccco3)cc(C(F)(F)F)n2)no1	-	9.9	-	-	-	-	-	-
COc1ccc(-c2cc(C(F)(F)F)nc(SCC(=O)NCc3cccs3)n2)cc1	-	15.9	-	-	-	-	-	-
O=C(CSc1nc(-c2ccc(F)cc2)cc(C(F)(F)F)n1)Nc1ccc2c(c1)OCO2	-	16.7	-	-	-	-	-	-
O=C(CSc1nc(-c2ccccc2)cc(C(F)(F)F)n1)NCc1cccs1	-	.	.	-	.	-	.	.
COc1ccc(CCNC(=O)CCSc2nc(-c3ccco3)cc(C(F)(F)F)n2)cc1	-	18.3	-	-	-	-	-	-
O=C(N[C@@H]1CC[C@@H](CCNC(=O)C2CC2)O[C@@H]1CO)c1ccccn1	.	.	-	.	.	.	.	.
Cc1ccc(S(=O)(=O)Nc2ccc3c(c2)C(=O)N([C@@H](C)CO)C[C@H](C)[C@H](CN(C)C(=O)Nc2ccccc2)OCCCC[C@@H](C)O3)cc1	.	.	-	.	.	.	.	.
CCN(CC)S(=O)(=O)c1ccc(-c2nnc(SCC(=O)Nc3ccc4c(c3)OCO4)o2)cc1	-	10.0	.	-	-	-	-	-
C=C(C)c1ccc(C(C)(C)NC(=O)NCc2ccco2)cc1	-	-	-	-	-	-	.	.
C=C(C)c1ccc(C(C)(C)NC(=O)N(Cc2ccccc2)Cc2ccco2)cc1	-	17.3	-	-	-	-	-	-
CC(C)[C@@H](C)NC(=O)N(C)C[C@@H]1OCc2ccccc2-c2c(n(C)c3ccccc23)C(=O)N([C@@H](C)CO)C[C@@H]1C	.	.	-	.	.	.	.	.
Clc1ccc(-c2csc(N/N=C\c3cccnc3)n2)cc1	-	11.3	.	-	-	-	-	-
C[C@H]1CN([C@@H](C)CO)C(=O)c2cccc(NS(=O)(=O)c3cccs3)c2O[C@H]1CN(C)S(=O)(=O)c1cccs1	.	.	-	.	.	.	.	.
O=C(C[C@@H]1C[C@@H]2c3cc(NC(=O)c4cccnc4)ccc3O[C@@H]2[C@@H](CO)O1)NCc1ccncc1	.	.	-	.	.	.	.	.
NC(=O)CC(NC(=O)c1ccccc1)c1ccc(NCCc2ccc(Cl)cc2)c([N+](=O)[O-])c1 (stereo unspecified)	-	13.3	-	-	-	-	-	-
Cc1ccccc1CNc1ccc(C(CC(N)=O)NC(=O)c2ccc(Br)cc2)cc1[N+](=O)[O-] (stereo unspecified)	-	15.7	-	-	-	-	-	-
CN(C)C(=O)c1cccc(-c2ccc3c(c2)[C@@H]2[C@@H](CCN2Cc2ccccc2F)[C@H](CO)N3)c1	.	.	-	.	.	.	.	.
Cc1ccc(N=C2NC(=O)S/C2=C\c2ccco2)cc1	-	-	.	-	-	-	.	.
SMILES	ARFGAP1 inh	MC4R barr agon	Yeast UUG start	NRP1-CendR mod	MC4R antagonist	ASAP1 inh	MC4R barr conf	MOR DOR agonist
Cc1ccc(N2C(=O)/C(=C/c3ccco3)SC2=S)cc1	-	22.9	.	-	-	-	-	-
Cc1ccc(N2C(=O)/C(=C/c3cccnc3)SC2=S)cc1	-	15.4	.	-	-	-	-	-
C[C@@H]1CN([C@H](C)CO)C(=O)c2cc(NS(=O)(=O)c3ccc(F)cc3)ccc2O[C@@H](C)CCCCO[C@@H]1CN(C)S(=O)(=O)c1ccccc1	.	.	-	.	.	.	.	.
CCc1ccc(OCC(O)CN2CCN(c3ccccc3)CC2)cc1 (stereo unspecified)	-	10.7	-	-	-	-	-	-
COc1cc(C(=O)Nc2nc(-c3ccc(Cl)cc3)c(C)s2)ccc1OCC(=O)Nc1ccc(F)cc1	-	-	.	-	-	-	.	.
CCc1ccc(-c2nc(NC(=O)c3ccc(OCC(=O)Nc4ccc(F)cc4)c(OC)c3)sc2C)cc1	-	11.2	-	-	-	-	10.5	-
CCOc1ccc(-c2cc(CCCC(=O)NCCc3ccc(OC)c(OC)c3OC)no2)cc1	-	24.0	-	-	-	-	-	-
C[C@@H](NC(=O)[C@@H]1[C@@H](CO)[C@@H]2Cn3c(cccc3=O)[C@H]1N2C(=O)C1CCCC1)c1ccccc1	.	.	-	.	.	.	.	.
CCOc1cccc(N)c1	.	-	-	-	-	.	.	.
CCOc1ccc(N)c(SSc2cc(OCC)ccc2N)c1	-	10.8	-	-	-	-	-	-
C[C@H]1CN([C@@H](C)CO)C(=O)CCCn2cc(nn2)CO[C@H]1CN(C)Cc1ccccc1C(=O)O	.	.	-	.	.	.	.	.
O=C(NCC[C@H]1CC[C@H](NS(=O)(=O)Cc2ccccc2)[C@H](CO)O1)C1CCOCC1	.	.	-	.	.	.	.	.
Cc1cc(C)c(C#N)c(SCC(=O)Nc2nnc(-c3ccccc3)s2)n1	-	16.4	-	-	-	-	-	-
COc1cc(-c2cc(-c3ccccc3)nc(SCC(=O)Nc3nccs3)c2C#N)cc(OC)c1OC	-	11.0	-	-	-	-	-	-

Screens: PubChem, several laboratories
